# The list is not random: actives were taken first. Their share in the collection is about 1.8%.
# SIRT5 inh – sirtuin-5 (human) deacylase inhibition; Q9NXA8; Purified SirT5, succinyl-peptide AMC, trypsin-coupled fluorescence; inhibition, % at 15 µM; hit rate 1.1% among 330,000; AID 652115; in the data active = inhibition above about 15%
# MLL AF4-AF9 inh – MLL-AF4/AF9 protein interaction inhibition. AlphaScreen, biotin-AF4 peptide binding to FLAG-AF9. AID 651704. hit rate 0.47% among 350,000. inhibition, % at 10 µM;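 active = every replicate reaching a set inhibition limit, whatever the replicate mean, cut at about 25% in these data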;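 also: 0% = plate neutral control median and 100% = total signal loss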
# E-sel inducer – E-selectin induction on HUVECs; P16581; HUVEC E-selectin immunofluorescence imaging; normalized: neutral wells 0, TNF-alpha wells 100; activation, % at 7.58 µM; hit rate 0.37% among 260,000; AID 686992;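 active = mean E-selectin-positive cell signal at least 10% of the positive control, reached in at least 60% of replicates, without over 20% cell loss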
#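 Test system: HUVEC | Signal: Immunofluorescence imaging | Read-out: Percent E-selectin-positive cells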
# RAD52 anneal inh – inhibitors of human RAD52 DNA annealing | P43351 | recombinant RAD52 DNA annealing, FRET fluorescence | inhibition, % at 18.7 µM | hit rate 0.46% among 360,000 | AID 651710;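 active = every replicate showing at least 50% inhibition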
# RAD54 inh – blocks human RAD54 Holliday junction branch migration; Q92698; FAM/BHQ fluorescence; inhibition, % at 10.4 µM; hit rate 0.14% among 360,000; AID 602329;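 active = mean normalized replicate activity at least 40 and at least half of replicates scoring 40 or more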;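 also: 0% = median of neutral control wells and 100% = median of positive control wells; inhibitors cause a drop in the FAM fluorescence signal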
# Yeast UUG start – modulators of start codon recognition fidelity in yeast; S. cerevisiae UUG-firefly luciferase reporter, luminescence/redox ratio; activity score, % at 18.7 µM; hit rate 0.13% among 350,000; AID 602363;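 active = replicate mean at a twofold rise or more, about +100% in these data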;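 note: firefly luciferase made from a UUG start codon reports start codon fidelity; reporter light over untreated wells divided by growth signal over untreated wells; some hits fall short of that in this replicate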
# An asterisk follows results filed as active; x = no result given.
1	Cc1cc(/C=C2/NC(=O)N(Cc3ccccc3F)C2=O)c(C)n1C(C)C
2	C[C@H]1CN([C@@H](C)CO)C(=O)Cc2cc(N(C)C)ccc2O[C@H]1CN(C)Cc1ccc(-c2ccccc2)cc1
3	C[C@@H]1CN([C@@H](C)CO)C(=O)Cc2cc(N(C)C)ccc2O[C@H]1CN(C)Cc1ccc(C(F)(F)F)cc1
4	C[C@H](CO)N1C[C@H](C)[C@@H](CN(C)Cc2ccc(-c3ccccc3)cc2)Oc2ccc(N(C)C)cc2CC1=O
5	C[C@@H]1CN([C@@H](C)CO)C(=O)Cc2cc(N(C)C)ccc2O[C@@H]1CN(C)Cc1ccccc1
6	C[C@@H]1CN([C@H](C)CO)C(=O)Cc2cc(N(C)C)ccc2O[C@H]1CN(C)Cc1ccc(-c2ccccc2)cc1
7	CC=Cc1ccc2n(c1=O)C[C@@H]1[C@@H](CO)[C@H](C(=O)N(C)C)N(C(=O)CC)[C@H]21 (mixture of isomers)
8	O=C(N[C@H]1CC[C@H](CC(=O)N2CCCCC2)O[C@@H]1CO)c1ccccn1

Screen / compound no.,1,2,3,4,5,6,7,8
SIRT5 inh,112.2*,9.8,4.7,2.2,-2.4,-2.6,-7.6,-2.2
Yeast UUG start,x,1.4,0.5,94.9,-9.5,-11.0,x,-12.1
RAD54 inh,x,3.8,6.5,-20.7,-0.6,-4.1,x,x
E-sel inducer,-0.1,0.1,-0.9,0.0,0.2,-0.1,-0.3,-0.4
MLL AF4-AF9 inh,6.1,44.2*,42.5*,58.8*,8.4,35.6*,-5.2,0.7
RAD52 anneal inh,-14.2,0.7,2.0,1.6,-8.3,-7.0,-2.2,-3.3

9	C[C@@H]1CN([C@@H](C)CO)C(=O)Cc2cc(N(C)C)ccc2O[C@@H]1CN(C)Cc1ccc(Oc2ccccc2)cc1
10	C[C@@H]1CN([C@H](C)CO)C(=O)Cc2cc(N(C)C)ccc2O[C@@H]1CN(C)Cc1ccc(-c2ccccc2)cc1
11	C[C@H]1CN([C@@H](C)CO)C(=O)Cc2cc(N(C)C)ccc2O[C@H]1CN(C)Cc1ccccc1
12	Cc1ccc(S(=O)(=O)NCC[C@@H]2CC[C@H](NC(=O)c3cccnc3)[C@@H](CO)O2)cc1
13	CCOc1ccc(C(=O)N2CCN(S(=O)(=O)c3cccs3)CC2)c(OCC)c1
14	CCOC(=O)N1CCN(S(=O)(=O)c2cccs2)CC1
15	COc1ccc(NC(=O)N(C)C[C@@H]2Oc3ccc(NS(=O)(=O)c4cn(C)cn4)cc3CC(=O)N([C@@H](C)CO)C[C@@H]2C)cc1
16	O=C1CN(C(=O)NCC(=O)N[C@H](C(=O)O)c2ccccc2)c2ccccc2N1

Screen / compound no.,9,10,11,12,13,14,15,16
SIRT5 inh,-2.3,3.4,-5.5,-3.7,7.3,x,3.9,18.0*
Yeast UUG start,8.3,5.9,-17.1,-12.6,-8.6,-18.7,-10.6,-5.4
RAD54 inh,-2.4,-6.4,8.3,-7.4,-1.4,-4.4,8.8,-0.8
E-sel inducer,10.2,0.1,-0.2,1.1,32.7*,x,-0.2,x
MLL AF4-AF9 inh,38.0*,44.0*,1.8,-2.1,0.0,x,-3.9,2.0
RAD52 anneal inh,1.7,2.7,5.5,-3.5,2.9,x,5.1,-2.6

17	O=C1CN(C(=O)NCC(=O)N[C@H](Cc2ccccc2)C(=O)O)c2ccccc2N1
18	O=C(C[C@H]1C=C[C@H](NC(=O)c2cccnc2)[C@@H](CO)O1)NCCN1CCCCC1
19	COc1cc(-c2c(-c3ccc4c(c3)OCO4)noc2-c2ccsc2)ccc1F
20	CCOC(=O)c1ccc(-c2c(-c3ccc4c(c3)OCO4)noc2-c2ccsc2)cc1F
21	COc1ccccc1C(=O)N/C(=C/c1ccccc1)C(=O)NC(CCSC)C(=O)O (stereo not given)
22	COc1ccccc1C(=O)N/C(=C\c1ccccc1)C(=O)NC(Cc1ccccc1)C(=O)O (stereo not given)
23	COc1ccccc1S(=O)(=O)N(C)C[C@H]1OCc2ccccc2-c2c(n(C)c3ccccc23)C(=O)N([C@H](C)CO)C[C@@H]1C
24	Cc1ccccc1S(=O)(=O)N(C)C[C@H]1OCc2ccccc2-c2c(n(C)c3ccccc23)C(=O)N([C@H](C)CO)C[C@H]1C

Screen / compound no.,17,18,19,20,21,22,23,24
SIRT5 inh,-0.3,x,17.0*,-1.9,-2.0,69.9*,15.1*,16.4*
Yeast UUG start,-23.6,x,-21.1,-11.4,-2.4,-8.4,x,1.3
RAD54 inh,0.5,x,0.5,-3.6,-2.9,3.6,-22.4,-3.1
E-sel inducer,x,-0.5,0.0,0.1,x,x,11.4,2.2
MLL AF4-AF9 inh,-1.9,1.9,0.9,0.4,8.1,-0.8,4.8,7.0
RAD52 anneal inh,0.9,x,-15.4,-2.7,-8.0,-4.8,22.1,5.3

# Whole records as entered above.
# `C[C@H]1CN([C@@H](C)CO)C(=O)Cc2cc(N(C)C)ccc2O[C@H]1CN(C)Cc1ccc(-c2ccccc2)cc1` is entered as SIRT5 inh: 9.8; Yeast UUG start: 1.4; RAD54 inh: 3.8; E-sel inducer: 0.1; MLL AF4-AF9 inh: 44.2*; RAD52 anneal inh: 0.7
# `O=C1CN(C(=O)NCC(=O)N[C@H](Cc2ccccc2)C(=O)O)c2ccccc2N1` is entered as SIRT5 inh: -0.3; Yeast UUG start: -23.6; RAD54 inh: 0.5; E-sel inducer: x; MLL AF4-AF9 inh: -1.9; RAD52 anneal inh: 0.9

# Further compounds
25	O=C(Nc1ccc(N2CCCC2)c(Cl)c1)c1cccs1
26	CCOc1ccc(Nc2nc(N)nc(CSC(=S)N3CCN(c4ccccc4)CC3)n2)cc1
27	O=C(C[C@H]1CC[C@H](NC(=O)CCN2CCCCC2)[C@H](CO)O1)Nc1ccc(-c2ccccc2)cc1
28	Cc1ccc(S(=O)(=O)NNC(=O)c2ccc(F)cc2)cc1
29	O=C(NNS(=O)(=O)c1ccccc1)c1ccc(F)cc1
30	O=C(NNS(=O)(=O)c1ccc(F)cc1)c1cccc(O)c1
31	Cc1ccc(S(=O)(=O)NNC(=O)c2cccc(O)c2)cc1
32	CCc1cnc(N2[C@H](C#N)[C@@H](c3ccc(C#CCC4CCCC4)cc3)[C@@H]2CO)s1

Screen / compound no.,25,26,27,28,29,30,31,32
SIRT5 inh,67.1*,-1.3,-1.8,1.1,-2.4,17.0*,-0.4,x
Yeast UUG start,x,x,-2.2,-22.0,-4.4,-4.2,x,x
RAD54 inh,x,x,5.3,2.7,5.8,-11.9,x,x
E-sel inducer,x,2.6,0.1,x,x,x,72.6*,-0.6
MLL AF4-AF9 inh,12.7,35.4*,2.7,2.6,5.1,-1.9,48.3*,x
RAD52 anneal inh,-4.9,-14.5,-7.1,-23.9,-7.0,-1.9,-8.8,x

33	C[C@@H]1CCCCO[C@H](CN(C)S(C)(=O)=O)[C@@H](C)CN([C@H](C)CO)C(=O)c2cc(NS(C)(=O)=O)ccc2O1
34	COCC(=O)N(C)C[C@H]1Oc2cc(-c3ccc(F)cc3)ccc2S(=O)(=O)N([C@@H](C)CO)C[C@H]1C
35	C[C@@H]1CN([C@H](C)CO)S(=O)(=O)c2ccc(-c3ccc(F)cc3)cc2O[C@@H]1CN(C)CC1CC1
36	COCC(=O)N(C)C[C@@H]1Oc2cc(-c3ccc(F)cc3)ccc2S(=O)(=O)N([C@H](C)CO)C[C@@H]1C
37	C[C@@H]1CN([C@H](C)CO)S(=O)(=O)c2ccc(C#Cc3cccc(F)c3)cc2O[C@@H]1CN(C)CC1CC1
38	CN1C(=O)c2cc(NC(=O)C3CCCCC3)ccc2OC[C@H]2O[C@H](CC(=O)NC3CCCC3)CC[C@H]21
39	Cc1ccc(C)c(S(=O)(=O)Nc2ccccc2C(=O)Nc2ccc(S(=O)(=O)Nc3ncccn3)cc2)c1
40	C[C@H](CO)N1C[C@H](C)[C@@H](CN(C)C(=O)Nc2ccc(F)cc2)OCc2ccccc2-c2c(n(C)c3ccccc23)C1=O
41	COc1ccc(NC(=O)N(C)C[C@@H]2OCc3ccccc3-c3c(n(C)c4ccccc34)C(=O)N([C@@H](C)CO)C[C@@H]2C)cc1

Screen / compound no.,33,34,35,36,37,38,39,40,41
SIRT5 inh,x,13.3,-1.6,-3.1,15.2*,-2.2,18.7*,15.5*,20.5*
Yeast UUG start,-5.3,-3.9,15.6,-6.9,2.1,6.7,3.6,x,3.7
RAD54 inh,-1.4,-16.5,-0.4,0.1,2.5,-2.5,1.4,9.5,2.1
E-sel inducer,-0.1,125.4*,91.8*,-0.3,-1.4,0.0,0.3,4.4,-0.5
MLL AF4-AF9 inh,x,1.1,6.0,-2.2,3.1,-2.6,3.6,3.1,2.8
RAD52 anneal inh,x,-0.2,36.4,-8.9,58.9*,0.1,-51.4,18.6,8.0

# Source: PubChem (Broad Institute)
